Source: BindingDB's records for doi:10.1007/bf00168610 (UniversitÄT Heidelberg, 1991)
Several values for one entry are separate records, joined by “and”; a condition that tells them apart may be missing. Equal values may be shown once.

Sequences of proteins named here, by UniProt entry; tags and fusion partners are left off.
UniProt P47745, whole entry: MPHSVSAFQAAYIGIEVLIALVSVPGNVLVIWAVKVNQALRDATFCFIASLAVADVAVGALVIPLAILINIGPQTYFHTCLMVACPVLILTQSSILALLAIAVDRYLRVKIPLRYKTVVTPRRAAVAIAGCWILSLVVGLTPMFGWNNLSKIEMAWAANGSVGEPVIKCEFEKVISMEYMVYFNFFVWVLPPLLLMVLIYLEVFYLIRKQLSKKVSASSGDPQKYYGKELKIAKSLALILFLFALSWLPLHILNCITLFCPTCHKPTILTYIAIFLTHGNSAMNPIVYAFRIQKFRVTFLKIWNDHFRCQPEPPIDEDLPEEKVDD

Target: Adenosine receptor A1 (Cavia porcellus, UniProt P47745)

With `Cn1c(=O)c2[nH]cnc2n(C)c1=O` [Theophylline (1,3-dimethylxanthine)] the Ki was 5.98 µM and 7.06 µM.
